# Data published in EP4834897A1, “COMPOUNDS WITH TWO AZAHETEROCYCLES SUBSTITUTED ISOINDOLINONE SKELETON AND USES THEREOF” (dated 2026).
# The chains behind the UniProt entries cited, without tags or fusion partners.
# UniProt Q96SW2, whole entry: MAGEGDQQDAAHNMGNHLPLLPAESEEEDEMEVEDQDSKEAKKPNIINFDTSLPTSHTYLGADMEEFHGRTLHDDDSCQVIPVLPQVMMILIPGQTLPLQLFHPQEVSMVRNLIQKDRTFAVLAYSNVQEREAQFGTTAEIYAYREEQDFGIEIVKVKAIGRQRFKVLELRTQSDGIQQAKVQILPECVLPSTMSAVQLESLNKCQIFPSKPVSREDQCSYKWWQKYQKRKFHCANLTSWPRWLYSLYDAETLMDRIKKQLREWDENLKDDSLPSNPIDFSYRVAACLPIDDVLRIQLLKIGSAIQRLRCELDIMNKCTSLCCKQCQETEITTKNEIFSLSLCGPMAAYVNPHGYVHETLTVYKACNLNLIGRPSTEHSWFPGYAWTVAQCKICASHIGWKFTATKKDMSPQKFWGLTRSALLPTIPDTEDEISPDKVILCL
# UniProt P48729, whole entry: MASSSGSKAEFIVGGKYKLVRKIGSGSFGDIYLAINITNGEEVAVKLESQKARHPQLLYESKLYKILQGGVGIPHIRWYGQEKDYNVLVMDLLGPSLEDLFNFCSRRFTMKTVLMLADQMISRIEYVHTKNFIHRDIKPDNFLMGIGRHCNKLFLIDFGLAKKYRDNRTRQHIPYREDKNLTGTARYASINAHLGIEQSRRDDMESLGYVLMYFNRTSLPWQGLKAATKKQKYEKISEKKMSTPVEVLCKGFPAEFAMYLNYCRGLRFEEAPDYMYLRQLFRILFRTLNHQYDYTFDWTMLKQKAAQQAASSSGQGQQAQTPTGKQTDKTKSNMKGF
# UniProt P15170, whole entry: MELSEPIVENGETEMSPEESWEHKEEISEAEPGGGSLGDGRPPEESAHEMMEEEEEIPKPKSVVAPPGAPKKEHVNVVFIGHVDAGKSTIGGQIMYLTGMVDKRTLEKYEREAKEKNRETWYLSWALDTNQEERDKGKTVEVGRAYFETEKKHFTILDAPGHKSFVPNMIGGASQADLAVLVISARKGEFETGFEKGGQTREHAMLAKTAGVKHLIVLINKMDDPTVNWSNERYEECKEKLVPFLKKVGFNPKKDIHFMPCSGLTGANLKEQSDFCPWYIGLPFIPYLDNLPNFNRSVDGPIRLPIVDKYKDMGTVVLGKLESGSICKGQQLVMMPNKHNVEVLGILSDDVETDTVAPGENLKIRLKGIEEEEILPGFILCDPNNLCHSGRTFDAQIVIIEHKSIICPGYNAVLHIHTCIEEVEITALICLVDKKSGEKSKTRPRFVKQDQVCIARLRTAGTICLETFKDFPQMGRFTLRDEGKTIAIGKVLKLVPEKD
# UniProt Q13422, whole entry: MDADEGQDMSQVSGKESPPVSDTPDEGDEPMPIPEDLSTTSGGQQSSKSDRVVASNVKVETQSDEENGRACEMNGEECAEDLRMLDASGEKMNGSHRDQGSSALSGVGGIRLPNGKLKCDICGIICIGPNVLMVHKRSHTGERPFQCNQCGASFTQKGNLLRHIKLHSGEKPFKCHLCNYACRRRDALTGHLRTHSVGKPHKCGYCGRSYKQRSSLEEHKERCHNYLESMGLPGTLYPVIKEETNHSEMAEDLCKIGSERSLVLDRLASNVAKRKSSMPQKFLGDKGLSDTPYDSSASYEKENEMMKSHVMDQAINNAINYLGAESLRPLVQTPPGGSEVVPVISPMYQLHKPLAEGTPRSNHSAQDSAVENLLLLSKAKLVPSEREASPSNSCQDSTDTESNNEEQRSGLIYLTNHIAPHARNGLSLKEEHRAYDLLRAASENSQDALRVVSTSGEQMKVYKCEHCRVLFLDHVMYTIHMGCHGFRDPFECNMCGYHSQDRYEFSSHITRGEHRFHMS
# UniProt Q9UKS7, whole entry: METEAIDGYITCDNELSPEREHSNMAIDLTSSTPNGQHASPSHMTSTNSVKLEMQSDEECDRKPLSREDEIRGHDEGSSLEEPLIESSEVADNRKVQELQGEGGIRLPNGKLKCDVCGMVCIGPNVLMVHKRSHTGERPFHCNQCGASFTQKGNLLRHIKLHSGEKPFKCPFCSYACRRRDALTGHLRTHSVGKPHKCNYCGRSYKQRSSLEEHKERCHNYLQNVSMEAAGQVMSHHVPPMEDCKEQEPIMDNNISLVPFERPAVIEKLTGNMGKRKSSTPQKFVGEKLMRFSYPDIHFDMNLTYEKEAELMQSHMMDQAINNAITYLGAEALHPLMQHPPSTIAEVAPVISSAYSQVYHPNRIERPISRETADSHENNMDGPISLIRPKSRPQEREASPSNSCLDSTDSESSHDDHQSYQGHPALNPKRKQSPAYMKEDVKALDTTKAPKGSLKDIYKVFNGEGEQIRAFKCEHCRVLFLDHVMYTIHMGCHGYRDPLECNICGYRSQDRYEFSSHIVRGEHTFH
# UniProt Q9UKT9, whole entry: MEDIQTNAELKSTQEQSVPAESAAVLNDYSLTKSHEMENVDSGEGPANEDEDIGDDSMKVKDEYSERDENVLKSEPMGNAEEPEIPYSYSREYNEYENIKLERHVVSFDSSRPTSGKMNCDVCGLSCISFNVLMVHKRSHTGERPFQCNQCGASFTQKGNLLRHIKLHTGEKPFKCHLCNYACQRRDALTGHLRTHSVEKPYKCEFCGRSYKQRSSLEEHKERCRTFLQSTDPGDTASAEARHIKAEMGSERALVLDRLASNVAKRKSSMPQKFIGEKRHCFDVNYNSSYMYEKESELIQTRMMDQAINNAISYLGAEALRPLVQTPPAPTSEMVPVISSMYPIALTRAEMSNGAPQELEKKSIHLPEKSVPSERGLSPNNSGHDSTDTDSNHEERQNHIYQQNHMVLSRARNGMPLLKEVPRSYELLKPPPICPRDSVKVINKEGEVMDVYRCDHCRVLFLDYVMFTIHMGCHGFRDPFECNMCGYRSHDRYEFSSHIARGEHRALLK
# UniProt P30291, whole entry: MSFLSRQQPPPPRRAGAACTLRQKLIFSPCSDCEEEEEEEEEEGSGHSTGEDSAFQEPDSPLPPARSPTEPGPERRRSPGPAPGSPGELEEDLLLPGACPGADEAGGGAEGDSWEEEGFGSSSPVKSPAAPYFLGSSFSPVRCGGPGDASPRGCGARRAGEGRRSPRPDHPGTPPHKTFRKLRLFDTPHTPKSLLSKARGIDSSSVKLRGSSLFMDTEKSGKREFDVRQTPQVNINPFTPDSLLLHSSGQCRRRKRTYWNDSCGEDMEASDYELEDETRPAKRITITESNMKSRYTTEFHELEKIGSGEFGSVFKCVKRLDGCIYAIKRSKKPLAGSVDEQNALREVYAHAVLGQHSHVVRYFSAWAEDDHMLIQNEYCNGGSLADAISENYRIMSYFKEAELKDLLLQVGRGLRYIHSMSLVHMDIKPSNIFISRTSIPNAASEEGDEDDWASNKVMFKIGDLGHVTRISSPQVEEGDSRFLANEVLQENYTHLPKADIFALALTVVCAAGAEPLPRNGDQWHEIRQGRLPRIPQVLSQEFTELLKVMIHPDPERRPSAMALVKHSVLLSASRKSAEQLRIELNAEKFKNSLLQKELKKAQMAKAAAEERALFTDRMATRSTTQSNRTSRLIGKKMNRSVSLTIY
# UniProt Q16531, whole entry partner: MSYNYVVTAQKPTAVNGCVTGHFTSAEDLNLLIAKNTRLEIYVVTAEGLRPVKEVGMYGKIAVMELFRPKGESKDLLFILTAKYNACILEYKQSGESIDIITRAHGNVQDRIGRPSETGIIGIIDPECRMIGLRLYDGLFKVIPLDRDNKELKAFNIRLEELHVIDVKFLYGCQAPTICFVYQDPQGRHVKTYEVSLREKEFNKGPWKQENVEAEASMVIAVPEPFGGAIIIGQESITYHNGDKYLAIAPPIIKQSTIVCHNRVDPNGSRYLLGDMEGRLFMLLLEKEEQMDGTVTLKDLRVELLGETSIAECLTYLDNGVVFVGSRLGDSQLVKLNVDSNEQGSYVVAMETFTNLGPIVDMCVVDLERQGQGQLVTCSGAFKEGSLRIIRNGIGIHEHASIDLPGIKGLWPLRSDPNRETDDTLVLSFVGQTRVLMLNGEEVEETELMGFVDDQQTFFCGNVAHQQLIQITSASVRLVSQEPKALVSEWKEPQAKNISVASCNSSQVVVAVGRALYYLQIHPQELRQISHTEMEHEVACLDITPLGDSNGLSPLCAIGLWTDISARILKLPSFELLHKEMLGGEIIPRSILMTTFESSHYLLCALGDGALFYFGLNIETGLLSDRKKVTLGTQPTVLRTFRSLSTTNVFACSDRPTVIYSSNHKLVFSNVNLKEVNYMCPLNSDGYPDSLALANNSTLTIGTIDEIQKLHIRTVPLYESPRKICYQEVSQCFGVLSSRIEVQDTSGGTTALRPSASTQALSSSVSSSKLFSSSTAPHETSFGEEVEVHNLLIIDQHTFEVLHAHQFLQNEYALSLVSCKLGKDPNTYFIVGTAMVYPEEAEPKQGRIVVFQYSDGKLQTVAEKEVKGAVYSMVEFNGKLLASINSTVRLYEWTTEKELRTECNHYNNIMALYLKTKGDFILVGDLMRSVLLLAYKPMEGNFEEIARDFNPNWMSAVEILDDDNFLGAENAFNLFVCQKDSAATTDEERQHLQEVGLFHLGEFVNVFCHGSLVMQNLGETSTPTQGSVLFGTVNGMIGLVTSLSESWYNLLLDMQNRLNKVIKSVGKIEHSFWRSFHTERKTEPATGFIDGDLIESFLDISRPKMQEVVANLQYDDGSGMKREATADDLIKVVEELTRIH
# Columns and labels:
# CRBN = CRBN (Homo sapiens, UniProt Q96SW2); assay: CRBN binding affinity by HTRF (CEREBLON BINDING kit); details: CRBN binding, HTRF; for Inhibition Rate at 0.5 µM (%): compound at 0.5 µM; for Inhibition Rate at 2 µM (%): compound at 2 µM
# CK1α = CK1α (Homo sapiens, UniProt P48729+Q96SW2); assay: Western blot assay of substrate protein degradation in hPBMCs; details: 24 hours treatment, compounds at 50 nM and 500 nM (concentration behind the class not stated)
# GSPT1 = GSPT1 (Homo sapiens, UniProt P15170+Q96SW2); assay: as above; details: 24 hours treatment, compounds at 50 nM and 500 nM (concentration behind the class not stated)
# IKZF1 = IKZF1 (Homo sapiens, UniProt Q13422+Q96SW2); assay: as above; details: 24 hours treatment, compounds at 50 nM and 500 nM (concentration behind the class not stated)
# IKZF2 = IKZF2 (Homo sapiens, UniProt Q96SW2+Q9UKS7); assay: as above; details: 24 hours treatment, compounds at 50 nM and 500 nM (concentration behind the class not stated)
# IKZF3 = IKZF3 (Homo sapiens, UniProt Q96SW2+Q9UKT9); assay: as above; details: 24 hours treatment, compounds at 50 nM and 500 nM (concentration behind the class not stated)
# WEE1 = WEE1 (Homo sapiens, UniProt P30291+Q96SW2); assay: as above; details: 24 hours treatment, compounds at 50 nM and 500 nM (concentration behind the class not stated)
Inhibition Rate at 0.5 µM (%) (CRBN),Inhibition Rate at 2 µM (%) (CRBN),SMILES,substrate protein remaining % (CK1a) (CK1α),substrate protein remaining % (GSPT1) (GSPT1),substrate protein remaining % (IKZF 1) (IKZF1),substrate protein remaining % (IKZF2) (IKZF2),substrate protein remaining % (IKZF3) (IKZF3),substrate protein remaining % (WEE1) (WEE1)
a5 (53% < a5 ≤ 60%),a8 (80% < a8 ≤100%),O=C1CCC(N2Cc3cc(C(=O)N4CCC(N5CCC(c6noc7cc(F)ccc67)CC5)C(F)(F)C4)cc(F)c3C2=O)C(=O)N1 (stereo not shown),B (80%< substrate protein remaining %≤ 100%),B (80%< substrate protein remaining %≤ 100%),B (80%< substrate protein remaining %≤ 100%),B (80%< substrate protein remaining %≤ 100%),B (80%< substrate protein remaining %≤ 100%),A (0% ≤ substrate protein remaining % ≤ 80%)
a6 (60% < a6 ≤ 70%),a8 (80% < a8 ≤100%),O=C1CCC(N2Cc3cc(CN4CCC(N5CCN(C(c6ccccc6)c6ccccc6)CC5)CC4)ccc3C2=S)C(=O)N1 (stereo not shown),B (80%< substrate protein remaining %≤ 100%),A (0% ≤ substrate protein remaining % ≤ 80%),B (80%< substrate protein remaining %≤ 100%),B (80%< substrate protein remaining %≤ 100%),B (80%< substrate protein remaining %≤ 100%),B (80%< substrate protein remaining %≤ 100%)
a4 (40% < a4 ≤ 53%),a7 (70% < a7 ≤80%),O=C1CCC(N2Cc3ccc(CN4CCC(N5CCN(C(c6ccccc6)c6ccccc6)CC5)C(F)(F)C4)cc3C2=S)C(=O)N1 (stereo not shown),B (80%< substrate protein remaining %≤ 100%),B (80%< substrate protein remaining %≤ 100%),B (80%< substrate protein remaining %≤ 100%),B (80%< substrate protein remaining %≤ 100%),A (0% ≤ substrate protein remaining % ≤ 80%),B (80%< substrate protein remaining %≤ 100%)
a3 (30% < a3 ≤ 40%),a6 (60% < a6 ≤ 70%),O=C1CCC(N2Cc3ccc(CN4CCC(N5CCN(c6cccc(Cl)c6Cl)CC5)C(F)(F)C4)cc3C2=S)C(=O)N1 (stereo not shown),B (80%< substrate protein remaining %≤ 100%),B (80%< substrate protein remaining %≤ 100%),B (80%< substrate protein remaining %≤ 100%),A (0% ≤ substrate protein remaining % ≤ 80%),B (80%< substrate protein remaining %≤ 100%),B (80%< substrate protein remaining %≤ 100%)
a2 (20% < a2 ≤ 30%),a5 (53% < a5 ≤ 60%),O=C1CCC(N2Cc3ccc(C(=O)N4CCC(N5CCN(C(c6ccccc6)c6ccccc6)CC5)CC4)cc3C2=O)C(=O)N1 (stereo not shown),A (0% ≤ substrate protein remaining % ≤ 80%),A (0% ≤ substrate protein remaining % ≤ 80%),A (0% ≤ substrate protein remaining % ≤ 80%),A (0% ≤ substrate protein remaining % ≤ 80%),B (80%< substrate protein remaining %≤ 100%),B (80%< substrate protein remaining %≤ 100%)
,,O=C1CCC(N2C(=O)c3ccc(C(=O)N4CCC(N5CCN(c6cccc(Cl)c6Cl)CC5)CC4)cc3C2=O)C(=O)N1 (stereo not shown),A (0% ≤ substrate protein remaining % ≤ 80%),A (0% ≤ substrate protein remaining % ≤ 80%),B (80%< substrate protein remaining %≤ 100%),B (80%< substrate protein remaining %≤ 100%),B (80%< substrate protein remaining %≤ 100%),B (80%< substrate protein remaining %≤ 100%)
,,O=C1CCC(N2Cc3cccc(C(=O)N4CCC(N5CCN(c6cccc(Cl)c6Cl)CC5)CC4)c3C2=O)C(=O)N1 (stereo not shown),A (0% ≤ substrate protein remaining % ≤ 80%),A (0% ≤ substrate protein remaining % ≤ 80%),B (80%< substrate protein remaining %≤ 100%),B (80%< substrate protein remaining %≤ 100%),B (80%< substrate protein remaining %≤ 100%),B (80%< substrate protein remaining %≤ 100%)
,,CC1(C)CCC(CN2CCN(C3CCN(Cc4ccc5c(c4)C(=O)N(C4CCC(=O)NC4=O)C5=O)CC3(F)F)CC2)=C(c2ccc(Cl)cc2)C1 (stereo not shown),B (80%< substrate protein remaining %≤ 100%),A (0% ≤ substrate protein remaining % ≤ 80%),B (80%< substrate protein remaining %≤ 100%),A (0% ≤ substrate protein remaining % ≤ 80%),B (80%< substrate protein remaining %≤ 100%),A (0% ≤ substrate protein remaining % ≤ 80%)
,,O=C1CCC(N2C(=O)c3ccc(C(=O)N4CCC(N5CCC(c6noc7cc(F)ccc67)CC5)C(F)(F)C4)cc3C2=O)C(=O)N1 (stereo not shown),B (80%< substrate protein remaining %≤ 100%),A (0% ≤ substrate protein remaining % ≤ 80%),B (80%< substrate protein remaining %≤ 100%),A (0% ≤ substrate protein remaining % ≤ 80%),B (80%< substrate protein remaining %≤ 100%),B (80%< substrate protein remaining %≤ 100%)
,,O=C1CCC(N2Cc3cccc(C(=O)N4CCC(N5CCN(C(c6ccccc6)c6ccccn6)CC5)C(F)(F)C4)c3C2=O)C(=O)N1 (stereo not shown),B (80%< substrate protein remaining %≤ 100%),A (0% ≤ substrate protein remaining % ≤ 80%),B (80%< substrate protein remaining %≤ 100%),B (80%< substrate protein remaining %≤ 100%),A (0% ≤ substrate protein remaining % ≤ 80%),B (80%< substrate protein remaining %≤ 100%)
,,O=C1CCC(N2C(=O)c3cccc(CN4CCC(N5CCC(c6noc7cc(F)ccc67)CC5)C(F)(F)C4)c3C2=O)C(=O)N1 (stereo not shown),B (80%< substrate protein remaining %≤ 100%),A (0% ≤ substrate protein remaining % ≤ 80%),B (80%< substrate protein remaining %≤ 100%),B (80%< substrate protein remaining %≤ 100%),B (80%< substrate protein remaining %≤ 100%),B (80%< substrate protein remaining %≤ 100%)
,,O=C1CCC(N2C(=O)c3ccc(C(=O)N4CCC(N5CCN(C(c6ccccc6)c6ccccc6)CC5)C(F)(F)C4)cc3C2=O)C(=O)N1 (stereo not shown),B (80%< substrate protein remaining %≤ 100%),A (0% ≤ substrate protein remaining % ≤ 80%),B (80%< substrate protein remaining %≤ 100%),A (0% ≤ substrate protein remaining % ≤ 80%),A (0% ≤ substrate protein remaining % ≤ 80%),B (80%< substrate protein remaining %≤ 100%)
,,O=C1CCC(N2C(=O)c3ccc(CN4CCC(N5CCC(c6noc7cc(F)ccc67)CC5)C(F)(F)C4)cc3C2=O)C(=O)N1 (stereo not shown),B (80%< substrate protein remaining %≤ 100%),A (0% ≤ substrate protein remaining % ≤ 80%),B (80%< substrate protein remaining %≤ 100%),B (80%< substrate protein remaining %≤ 100%),B (80%< substrate protein remaining %≤ 100%),B (80%< substrate protein remaining %≤ 100%)
,,O=C1CCC(N2C(=O)c3cccc(CN4CCC(N5CC=C(c6cccc(Cl)c6Cl)CC5)C(F)(F)C4)c3C2=O)C(=O)N1 (stereo not shown),B (80%< substrate protein remaining %≤ 100%),A (0% ≤ substrate protein remaining % ≤ 80%),B (80%< substrate protein remaining %≤ 100%),B (80%< substrate protein remaining %≤ 100%),B (80%< substrate protein remaining %≤ 100%),B (80%< substrate protein remaining %≤ 100%)
,,O=C1CCC(N2C(=O)c3ccc(CN4CCC(N5CCN(c6cccc(Cl)c6Cl)CC5)C(F)(F)C4)cc3C2=O)C(=O)N1 (stereo not shown),A (0% ≤ substrate protein remaining % ≤ 80%),A (0% ≤ substrate protein remaining % ≤ 80%),A (0% ≤ substrate protein remaining % ≤ 80%),B (80%< substrate protein remaining %≤ 100%),B (80%< substrate protein remaining %≤ 100%),A (0% ≤ substrate protein remaining % ≤ 80%)
